Test results published in publication PMC6261607, “Novel high–throughput myofibroblast assays identify agonists with therapeutic potential in pulmonary fibrosis that act via EP2 and EP4 receptors” (PLoS ONE, 2018).
pEC50: −log10 of the molar value.

The chains behind the UniProt entries cited, without tags or fusion partners. Where a name states a change or a piece, a line headed by the entry shows the natural chain unless it says otherwise.
UniProt P43116: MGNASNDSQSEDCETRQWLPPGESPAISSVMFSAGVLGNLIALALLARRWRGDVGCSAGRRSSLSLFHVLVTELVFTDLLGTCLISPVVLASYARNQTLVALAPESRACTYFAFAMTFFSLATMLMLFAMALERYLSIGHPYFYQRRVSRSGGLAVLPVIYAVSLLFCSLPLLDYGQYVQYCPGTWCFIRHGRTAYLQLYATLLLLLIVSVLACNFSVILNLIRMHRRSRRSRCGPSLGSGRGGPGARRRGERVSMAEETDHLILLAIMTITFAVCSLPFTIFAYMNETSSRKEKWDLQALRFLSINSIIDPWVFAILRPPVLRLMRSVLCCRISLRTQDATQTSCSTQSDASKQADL

Legend:
NHLF cells = test: RealTime–Glo MT viability assay; settings: 10 µM compound
human EP2 receptor = molecular target: T1, human EP2 receptor (Homo sapiens, UniProt P43116); test: cAMP assay, recombinant HEK–293 cells; format: cell-based; settings: HEK–293 expressing human EP2, 30 min
T1 construct: expressed in transfected cells; host or cells: HEK-293

[1] = molecular target: T2, EP2 receptor (human PTGER2) (Homo sapiens, UniProt P43116); test: β–arrestin recruitment assay (PathHunter); format: cell-based; settings: HEK–293 PathHunter, 120 min
T2 construct: host or cells: HEK-293 PathHunter
Procedure: EP2 and EP4 receptor β–arrestin (HEK–293 human PTGER2 and PTGER4 PathHunter) assays were purchased from DiscoverX. Recombinant HEK–293 PathHunter cells were detached and seeded in 384–well plates and grown overnight in OptiMEM medium (Invitrogen). Compounds were incubated for 120 min at 37°C. Chemiluminescent PathHunter detection reagent was added according to the manufacturer’s instructions followed by luminescence quantification on a microplate reader (PHERAstar, BMG Labtech). EC50 values were calculated using the proprietary IC50Studio software (Idorsia Pharmaceuticals Ltd).

Structure (SMILES) | Effect on viability at 10 µM [% reduction] (NHLF cells) | pEC50 (human EP2 receptor) | pEC50 [1]
Oc1c(Cl)cc(Cl)c(Cl)c1Cc1c(O)c(Cl)cc(Cl)c1Cl [Hexachlorophene] | 8 |  | 
CCCCC[C@H](O)/C=C/[C@H]1[C@H](O)CC(=O)[C@@H]1C/C=C\CCCC(=O)O [PGE2, prostaglandin E2] |  | 10.40 | 6.96
